# Values of other authors, collected in publication PMC10369073, “Production, identification, in silico analysis, and cytoprotection on H2O2-induced HUVECs of novel angiotensin-I-converting enzyme inhibitory peptides from Skipjack tuna roes” (Frontiers in Nutrition, 2023).
# Sequences of proteins named here, by UniProt entry; tags and fusion partners are left off. Residues count along the entry.
# UniProt P12822, 34-1310 limits assumed: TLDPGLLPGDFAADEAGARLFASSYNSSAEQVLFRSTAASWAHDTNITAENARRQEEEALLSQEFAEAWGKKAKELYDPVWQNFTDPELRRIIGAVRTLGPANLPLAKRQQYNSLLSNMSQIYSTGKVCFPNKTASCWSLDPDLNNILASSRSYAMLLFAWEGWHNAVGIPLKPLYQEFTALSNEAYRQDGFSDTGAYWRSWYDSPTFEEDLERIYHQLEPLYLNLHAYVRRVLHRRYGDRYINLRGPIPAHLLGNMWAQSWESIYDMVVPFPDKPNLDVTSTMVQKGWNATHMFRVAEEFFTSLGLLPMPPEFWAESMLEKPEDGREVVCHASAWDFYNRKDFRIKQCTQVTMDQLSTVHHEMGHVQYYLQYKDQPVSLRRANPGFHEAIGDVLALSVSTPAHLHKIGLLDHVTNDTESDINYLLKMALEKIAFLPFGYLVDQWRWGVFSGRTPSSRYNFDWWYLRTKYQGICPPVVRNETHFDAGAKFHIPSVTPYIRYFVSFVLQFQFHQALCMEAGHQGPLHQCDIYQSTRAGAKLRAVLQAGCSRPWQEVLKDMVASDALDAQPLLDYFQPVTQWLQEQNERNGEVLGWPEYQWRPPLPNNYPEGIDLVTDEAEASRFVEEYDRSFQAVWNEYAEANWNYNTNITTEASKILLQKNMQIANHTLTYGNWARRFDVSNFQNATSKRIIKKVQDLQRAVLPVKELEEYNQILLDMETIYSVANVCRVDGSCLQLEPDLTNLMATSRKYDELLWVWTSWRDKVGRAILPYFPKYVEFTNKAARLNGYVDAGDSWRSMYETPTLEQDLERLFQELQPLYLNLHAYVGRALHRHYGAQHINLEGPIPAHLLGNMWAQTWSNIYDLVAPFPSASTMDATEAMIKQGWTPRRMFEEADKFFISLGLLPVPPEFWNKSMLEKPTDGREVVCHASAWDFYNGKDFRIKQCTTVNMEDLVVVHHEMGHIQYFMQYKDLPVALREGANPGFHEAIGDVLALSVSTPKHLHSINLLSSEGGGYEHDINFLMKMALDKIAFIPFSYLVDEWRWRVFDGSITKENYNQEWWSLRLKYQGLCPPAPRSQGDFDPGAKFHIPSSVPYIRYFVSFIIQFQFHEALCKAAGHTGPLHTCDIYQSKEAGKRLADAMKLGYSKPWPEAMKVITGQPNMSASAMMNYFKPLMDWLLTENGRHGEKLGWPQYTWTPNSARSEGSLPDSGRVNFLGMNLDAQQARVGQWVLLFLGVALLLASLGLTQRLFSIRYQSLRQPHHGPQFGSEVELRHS
# Target: ACE (Oryctolagus cuniculus, UniProt P12822)
# Settings: cited from earlier work
# Experimental: The IC50 values of TRP3, TRP6, TRP9, and TRP12 were 0.93 ± 0.07, 0.79 ± 0.06, 0.49 ± 0.06, and 0.67 ± 0.05 mg/mL, respectively, which were lower than those of ACEi peptides, such as LAPPSTRH (1.31 mg/mL) ([61]), GPWGPA ([24]), VAP (1.71 mg/mL) ([62]), MVGSAPGVL (3.09 mg/mL) ([63]), FRKE (6.97 mg/mL) ([18]), FQK (1.73 mg/mL) ([22]), YLRLHF (1.26 mg/mL) ([64]), NFRPQ (4.28 mg/mL) ([17]), and FEM (2.18 mg/mL) ([37]), etc. || Amino acids are another factor affecting the ability of ACEi peptides. […] Moreover, the C- and N-terminal amino acids are believed to play a crucial function in the activity of ACEi peptides ([21]). Yu et al. ([56]) reported that C-terminus (such as Trp, Tyr, Pro, or Phe) and N-terminus (such as Pro, Phe, Trp, or Met) hydrophobic amino acid residues have positive effects on the ACEi ...
row,Compound,ACEi IC50 [µg/mL]
1,CSCC[C@H](NC(=O)[C@H](CCC(=O)O)NC(=O)[C@@H](N)Cc1ccccc1)C(=O)O,2180
2,CC(C)[C@H](N)C(=O)N[C@@H](C)C(=O)N1CCC[C@H]1C(=O)O,1710
